This assay deals with Histamine H1 receptor (Homo sapiens, UniProt P35367). Briefly: biochemical. It counts as cell-based.

Protein sequences, listed by entry. Tags and fused reporters are not part of them.
UniProt P35367, whole entry: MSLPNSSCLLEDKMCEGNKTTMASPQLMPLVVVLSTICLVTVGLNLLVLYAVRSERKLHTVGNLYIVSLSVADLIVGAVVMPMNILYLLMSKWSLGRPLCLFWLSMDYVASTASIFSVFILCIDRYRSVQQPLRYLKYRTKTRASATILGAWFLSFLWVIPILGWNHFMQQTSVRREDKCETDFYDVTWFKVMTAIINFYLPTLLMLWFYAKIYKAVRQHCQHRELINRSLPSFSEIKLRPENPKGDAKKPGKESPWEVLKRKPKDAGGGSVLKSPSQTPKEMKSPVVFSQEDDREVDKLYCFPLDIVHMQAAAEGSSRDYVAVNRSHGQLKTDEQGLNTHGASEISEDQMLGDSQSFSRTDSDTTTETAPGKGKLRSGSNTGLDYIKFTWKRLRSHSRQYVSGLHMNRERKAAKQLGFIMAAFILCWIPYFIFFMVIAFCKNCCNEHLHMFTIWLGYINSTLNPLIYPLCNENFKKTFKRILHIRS

The values that follow come from ChEMBL document CHEMBL4364298 (J Med Chem, 2019).

As a reminder, the Ki is the dissociation constant of the complex between target and ligand, obtained from inhibition or displacement. Lower therefore signals higher affinity.

Consider `Cc1ccc(CN2CCC(=C3c4ccc(Cl)cc4CCc4cccnc43)CC2)cn1`, for which the affinity corresponds to a Ki of 7.59 nM.

Turning to `Clc1ccc2c(c1)CCc1cccnc1C2=C1CCN(C2CCCCC2)CC1`, the Ki was 20 nM.

The compound `Clc1ccc2c(c1)CCc1cccnc1C2=C1CCN(Cc2ccncc2)CC1` showed a Ki of 7.94 nM.

Turning to `Clc1ccc2c(c1)CCc1cccnc1C2=C1CCN(Cc2ncccn2)CC1`, the affinity corresponds to a Ki of 3.16 nM.

With `Clc1ccc2c(c1)CCc1cccnc1C2=C1CCN(CC2CC2)CC1`, the inhibitory constant (Ki) is 0.631 nM.

In turn, `Clc1ccc2c(c1)CCc1cccnc1C2=C1CCN(Cc2ccncn2)CC1` gave a Ki of 5.01 nM.

Consider `Clc1ccc2c(c1)CCc1cccnc1C2=C1CCN(Cc2ccccc2)CC1`, for which the affinity, expressed as Ki, was 3.98 nM.

The compound `Cc1cccc(CN2CCC(=C3c4ccc(Cl)cc4CCc4cccnc43)CC2)c1` had an inhibitory constant (Ki) of 7.94 nM.

With `CCN1CCC(=C2c3ccc(Cl)cc3CCc3cccnc32)CC1`, the Ki is 0.417 nM.

On to `Clc1ccc2c(c1)CCc1cccnc1C2=C1CCN(CC2CCCC2)CC1`, for which the Ki was 1.26 nM.

With `Clc1ccc2c(c1)CCc1cccnc1C2=C1CCN(C2CCCC2)CC1`, the inhibitory constant (Ki) is 3.98 nM.

Consider `CCC(CC)CN1CCC(=C2c3ccc(Cl)cc3CCc3cccnc32)CC1`, for which the inhibition constant (Ki) was 1.78 nM.

On to `Clc1ccc2c(c1)CCc1cccnc1C2=C1CCN(Cc2ccccn2)CC1`, for which affinity was put at a Ki of 3.16 nM.

For the compound `Clc1ccc2c(c1)CCc1cccnc1C2=C1CCN(CC2CCCCC2)CC1`, the affinity, expressed as Ki, was 2.51 nM.

The compound `Clc1ccc2c(c1)CCc1cccnc1C2=C1CCN(C2CCC2)CC1` had an inhibitory constant (Ki) of 2.14 nM.

Turning to `CC(C)N1CCC(=C2c3ccc(Cl)cc3CCc3cccnc32)CC1`, the affinity corresponds to a Ki of 1 nM.

`Clc1ccc2c(c1)CCc1cccnc1C2=C1CCN(C2CC2)CC1` showed a Ki of 3.16 nM.

As for `Clc1ccc2c(c1)CCc1cccnc1C2=C1CCN(CC2CCC2)CC1`, the Ki is 0.794 nM.

In the case of `Clc1ccc2c(c1)CCc1cccnc1C2=C1CCN(Cc2cccnc2)CC1`, the affinity corresponds to a Ki of 5.01 nM.

In turn, `Cc1ccncc1CN1CCC(=C2c3ccc(Cl)cc3CCc3cccnc32)CC1` showed an inhibitory constant (Ki) of 12.9 nM.

Consider `Cc1ncccc1CN1CCC(=C2c3ccc(Cl)cc3CCc3cccnc32)CC1`, for which affinity was put at a Ki of 8.91 nM.
